Target: Delta-type opioid receptor (Homo sapiens, UniProt P41143)
Assay: Displacement of [3H]DPDPE from human delta opioid receptor expressed in CHO cells
Format: cell-based

Chains of the proteins cited; added tags and fusions are not shown.
UniProt P41143, whole entry: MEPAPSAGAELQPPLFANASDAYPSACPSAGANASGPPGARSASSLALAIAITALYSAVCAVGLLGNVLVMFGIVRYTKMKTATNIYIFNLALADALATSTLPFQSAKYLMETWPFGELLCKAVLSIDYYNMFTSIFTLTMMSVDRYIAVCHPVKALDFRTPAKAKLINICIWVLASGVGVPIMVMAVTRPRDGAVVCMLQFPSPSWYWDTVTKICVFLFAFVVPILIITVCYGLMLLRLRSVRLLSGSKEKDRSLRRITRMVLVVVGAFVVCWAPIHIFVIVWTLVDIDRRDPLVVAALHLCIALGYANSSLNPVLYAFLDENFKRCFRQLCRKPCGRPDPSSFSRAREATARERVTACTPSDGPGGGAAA

O=C1CC[C@@]2(OCCCc3ccccc3)[C@H]3Cc4ccc(O)c5c4[C@@]2(CCN3CC2CC2)[C@H]1O5
Ki: 0.48 nM

— ChEMBL document CHEMBL1152801, “14 beta-O-cinnamoylnaltrexone and related dihydrocodeinones are mu opioid receptor partial agonists with predominant antagonist activity” (J Med Chem, 2009)
